{
  "source": "patent US20050277586A1",
  "about": "“Peptide chemically modified with polyethylene glycol” (priority 2002, published 2005)",
  "assay": "Toxicity of the peptide, tail vein administration",
  "format": "in vivo",
  "conditions": "female BALB/c mouse, 5 mg/kg",
  "protocol": "The peptide used in the present invention was administered to a mouse from its tail vein to thereby evaluate its toxicity. The mouse used was a female BALB/c mouse of 5 week old, and the peptide was used at a dose of 5 mg/kg.",
  "data": [
    {"smiles": "CC(C)C[C@H](NC(=O)[C@H](C)NC(=O)[C@H](CC(C)C)NC(=O)[C@H](CCC(N)=O)NC(=O)[C@H](Cc1c[nH]cn1)NC(=O)[C@@H](NC(=O)[C@H](Cc1c[nH]c2ccccc12)NC(=O)[C@H](CO)NC(=O)[C@H](CCCNC(=N)N)NC(=O)[C@@H]1CCCN1C(=O)[C@H](Cc1c[nH]cn1)NC(=O)[C@H](CC(C)C)NC(=O)[C@H](CCCNC(=N)N)NC(=O)[C@H](CC(C)C)NC(=O)[C@H](Cc1ccc(O)cc1)NC(=O)[C@H](CCCNC(=N)N)NC(=O)[C@H](CC(C)C)NC(=O)[C@H](CCCNC(=N)N)NC(=O)[C@H](CC(C)C)NC(=O)[C@H](C)NC(=O)[C@H](CC(C)C)NC(=O)[C@H](CCC(N)=O)NC(=O)[C@H](Cc1c[nH]cn1)NC(=O)[C@@H](NC(=O)[C@H](Cc1c[nH]c2ccccc12)NC(=O)[C@H](CO)NC(=O)[C@H](CCCNC(=N)N)NC(=O)[C@@H]1CCCN1C(=O)[C@H](Cc1c[nH]cn1)NC(=O)[C@H](CC(C)C)NC(=O)[C@H](CCCNC(=N)N)NC(=O)[C@H](CC(C)C)NC(=O)[C@H](Cc1ccc(O)cc1)NC(=O)[C@H](CCCNC(=N)N)NC(=O)[C@@H](N)[C@@H](C)O)C(C)C)C(C)C)C(=O)N[C@@H](CCCNC(=N)N)C(=O)N[C@@H](CO)C(=O)O", "note": "[SEQ ID NO: 16]", "values": [
      {"measurement": "Toxicity after tail vein administration", "result": "no significant effects"}
    ]}
  ]
}
